Experimental data: PubChem BioAssay AID493091 (Sanford-Burnham Center for Chemical Genomics, 2011)
The entries are a selection whose mix differs from that of the whole data set. Some tests of the compounds listed are not included; inactive here does not mean inactive elsewhere. Active and inactive are the calls of the source.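 Rule for the calls: active = inhibition above about 50% at 20 µM (limit read from the data); inactive = the rest.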

Chains of the proteins cited; added tags and fusions are not shown. Residues count along the entry.
UniProt Q9GZU7, 76-261 limits assumed: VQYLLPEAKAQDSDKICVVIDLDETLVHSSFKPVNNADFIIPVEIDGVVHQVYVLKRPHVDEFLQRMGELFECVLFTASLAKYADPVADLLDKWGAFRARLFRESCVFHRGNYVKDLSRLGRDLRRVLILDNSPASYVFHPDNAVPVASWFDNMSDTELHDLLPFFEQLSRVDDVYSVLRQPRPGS

These compounds were tested against Carboxy-terminal domain RNA polymerase II polypeptide A small phosphatase 1 (Homo sapiens) (UniProt Q9GZU7) (assay: inhibition of human SCP1 dephosphorylation activity – biochemical, colorimetric, uHTS, primary screen (AID 493091;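 note: plate controls were DMSO wells with enzyme for no effect and wells lacking enzyme for full effect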)). Conditions: Recombinant Scp1, phosphopeptide, malachite green phosphate absorbance; at 20 µM; hits give high values.
Outline: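 Test system: SCP-1 phosphatase catalytic domain, residues 76-261; measured by: colorimetric phosphate reagent with accelerator and stabiliser, absorbance at 630 nm; timing: enzyme reaction 45 min at room temperature, colour 5 min, stabilisation 30 min; also added: Phosphorylated 17-residue peptide substrate; compound dosing: one concentration, 20 µM, with 1.0% DMSO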

SMILES	inhibition
CN(C)C1(CNC(=O)c2ccc(Br)cc2)CCCCC1	inactive: -4.55%
COc1cc(C(=O)NCC2(N(C)C)CCCCC2)c([N+](=O)[O-])cc1OC	inactive: -7.31%
COc1cccc(C(=O)NCC2(N3CCCCC3)CCCCC2)c1	inactive: -1%
COc1ccc(Cl)cc1C(=O)NCC1(N(C)C)CCCCC1	inactive: -15.4%
O=C(NCC1(N2CCCCC2)CCCCC1)c1cccc(Cl)c1	inactive: 5.88%
O=C(OC1CN2CCC1CC2)C(CO)(c1ccccc1)c1ccccc1 (stereo not given)	inactive: 2.86%
COc1ccc(Br)c(C(=O)NCC2(N3CCCCC3)CCCCC2)c1	inactive: 2.48%
CC(C)Oc1ccc(C(=O)NCC2(N(C)C)CCCCC2)cc1	inactive: -9.09%
O=C(OCCN1CCCC1)C(O)(c1ccccc1)c1ccccc1	inactive: 2.63%
CN(C)c1cccc(C(=O)NCC2(N(C)C)CCCCC2)c1	inactive: -10.4%
O=C(NCC1(N2CCCCC2)CCCCC1)c1cc([N+](=O)[O-])ccc1Cl	inactive: -5.15%
CN1[C@@H]2CC[C@H]1CC(OC(=O)C(O)(c1ccccc1)c1ccccc1)C2 (stereo not given in full)	inactive: 2.22%
CCN(CC)CC(C)C(C)OC(=O)C(O)(c1ccccc1)c1ccccc1 (stereo not given)	inactive: -5.75%
COc1cc(SC)ccc1C(=O)NCC1(N(C)C)CCCCC1	inactive: 2.67%
CC(C)N1C(=O)CC2(CCN(CCOC(=O)C(O)(c3ccccc3)c3ccccc3)CC2)C1=O	inactive: 0.47%
Cc1ccc(C(=O)NCC2(N3CCCCC3)CCCCC2)cc1	inactive: 6.19%
Cc1ccccc1C(=O)NCC1(N2CCCCC2)CCCCC1	inactive: -12.9%
CN(C)c1ccc(C(=O)NCC2(N(C)C)CCCCC2)cc1	inactive: 0.4%
CN(C)C1CCCC1OC(=O)C(O)(c1ccccc1)c1ccccc1 (stereo not given)	inactive: -4.84%
C=CCN1CCN(CCOC(=O)C(O)(c2ccccc2)c2ccccc2)CC1	inactive: -8.1%
O=C(NCC1(N2CCCCC2)CCCCC1)c1cc(F)c(F)cc1Cl	inactive: -7.24%
COc1ccc(C(=O)NCC2(N(C)C)CCCCC2)cc1	inactive: -0.87%
CCN1CCCC(OC(=O)C2(O)c3ccccc3C=Cc3ccccc32)C1 (stereo not given)	inactive: -5.69%
Cc1cc(C(=O)NCC2(N3CCCCC3)CCCCC2)ccc1[N+](=O)[O-]	inactive: -10.1%
O=C(NCC1(N2CCCCC2)CCCCC1)c1cccc(Br)c1	inactive: -5.33%
